Data published in PubChem BioAssay (NCI).
Some results for these compounds are left out of this collection, so the calls shown say nothing about other tests.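 1) Cells in 96-well plates. 2) Compound, 48 h, 5 concentrations. 3) Linear interpolation between surrounding doses. 4) Unreached endpoint = highest concentration. Abbreviation: GI50, concentration required for 50% inhibition of growth. TGI: total growth inhibition.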

Experiments:
Assay in all cases: growth of human tumour cells (NCI), 48 h
UACC-257 melanoma = test system: UACC-257 melanoma
SF-295 CNS = test system: SF-295 CNS
NCI-H322M lung = test system: NCI-H322M lung
SK-MEL-5 melanoma = test system: SK-MEL-5 melanoma
CAKI-1 renal = test system: CAKI-1 renal
MDA-MB-231 breast = test system: MDA-MB-231 breast
NCI-H522 lung = test system: NCI-H522 lung
MCF7 breast = test system: MCF7 breast
SK-MEL-28 melanoma = test system: SK-MEL-28 melanoma
HOP-92 NSCLC = test system: HOP-92 NSCLC
RPMI-8226 leukemia = test system: RPMI-8226 leukemia
MDA-MB-435 = test system: MDA-MB-435
U251 CNS = test system: U251 CNS
M14 melanoma = test system: M14 melanoma
NCI/ADR-RES ovarian = test system: NCI/ADR-RES ovarian
OVCAR-3 ovarian = test system: OVCAR-3 ovarian
MOLT-4 leukemia = test system: MOLT-4 leukemia
MDA-N = test system: MDA-N
A549 NSCLC = test system: A549 NSCLC
COLO 205 colon = test system: COLO 205 colon
LOX IMVI melanoma = test system: LOX IMVI melanoma
OVCAR-5 ovarian = test system: OVCAR-5 ovarian
SF-268 CNS = test system: SF-268 CNS
SNB-75 CNS = test system: SNB-75 CNS
SF-539 CNS = test system: SF-539 CNS
HCT-116 colon = test system: HCT-116 colon
SN12C renal = test system: SN12C renal
UACC-62 melanoma = test system: UACC-62 melanoma
HS 578T breast = test system: HS 578T breast
EKVX NSCLC = test system: EKVX NSCLC
OVCAR-4 ovarian = test system: OVCAR-4 ovarian
SNB-19 CNS = test system: SNB-19 CNS
IGROV1 ovarian = test system: IGROV1 ovarian
HOP-62 NSCLC = test system: HOP-62 NSCLC
RXF 393 renal = test system: RXF 393 renal
HT29 colon = test system: HT29 colon
786-0 renal = test system: 786-0 renal
NCI-H23 lung = test system: NCI-H23 lung
T-47D breast = test system: T-47D breast
CCRF-CEM leukemia = test system: CCRF-CEM leukemia
DU-145 prostate = test system: DU-145 prostate
SK-OV-3 ovarian = test system: SK-OV-3 ovarian
UO-31 renal = test system: UO-31 renal
PC-3 prostate = test system: PC-3 prostate
BT-549 breast = test system: BT-549 breast
SK-MEL-2 melanoma = test system: SK-MEL-2 melanoma
A498 renal = test system: A498 renal
TK-10 renal = test system: TK-10 renal
HL-60(TB) leukemia = test system: HL-60(TB) leukemia
ACHN renal = test system: ACHN renal
MALME-3M melanoma = test system: MALME-3M melanoma
SR leukemia = test system: SR leukemia
OVCAR-8 ovarian = test system: OVCAR-8 ovarian
HCT-15 colon = test system: HCT-15 colon
K-562 leukemia = test system: K-562 leukemia
NCI-H226 lung = test system: NCI-H226 lung

CC#CC(O)(C#CC)C(=O)OC1CN2CCC1CC2 (configuration not stated)
GI50 (UACC-257 melanoma): > 100 µM
TGI (UACC-257 melanoma): > 100 µM
GI50 (SF-295 CNS): > 100 µM
TGI (SF-295 CNS): > 100 µM
GI50 (NCI-H322M lung): > 100 µM
TGI (NCI-H322M lung): > 100 µM
GI50 (SK-MEL-5 melanoma): > 100 µM
TGI (SK-MEL-5 melanoma): > 100 µM
GI50 (CAKI-1 renal): > 100 µM
TGI (CAKI-1 renal): > 100 µM
GI50 (MDA-MB-231 breast): > 100 µM
TGI (MDA-MB-231 breast): > 100 µM
GI50 (NCI-H522 lung): > 100 µM
TGI (NCI-H522 lung): > 100 µM
GI50 (MCF7 breast): > 100 µM
TGI (MCF7 breast): > 100 µM
GI50 (SK-MEL-28 melanoma): > 100 µM
TGI (SK-MEL-28 melanoma): > 100 µM
GI50 (HOP-92 NSCLC): > 100 µM
TGI (HOP-92 NSCLC): > 100 µM
GI50 (RPMI-8226 leukemia): > 100 µM
TGI (RPMI-8226 leukemia): > 100 µM
GI50 (MDA-MB-435): > 100 µM
TGI (MDA-MB-435): > 100 µM
GI50 (U251 CNS): > 100 µM
TGI (U251 CNS): > 100 µM
GI50 (M14 melanoma): > 100 µM
TGI (M14 melanoma): > 100 µM
GI50 (NCI/ADR-RES ovarian): > 100 µM
TGI (NCI/ADR-RES ovarian): > 100 µM
GI50 (OVCAR-3 ovarian): > 100 µM
TGI (OVCAR-3 ovarian): > 100 µM
GI50 (MOLT-4 leukemia): > 100 µM
TGI (MOLT-4 leukemia): > 100 µM
GI50 (MDA-N): > 100 µM
TGI (MDA-N): > 100 µM
GI50 (A549 NSCLC): > 100 µM
TGI (A549 NSCLC): > 100 µM
GI50 (COLO 205 colon): > 100 µM
TGI (COLO 205 colon): > 100 µM
GI50 (LOX IMVI melanoma): > 100 µM
TGI (LOX IMVI melanoma): > 100 µM
GI50 (OVCAR-5 ovarian): > 100 µM
TGI (OVCAR-5 ovarian): > 100 µM
GI50 (SF-268 CNS): > 100 µM
TGI (SF-268 CNS): > 100 µM
GI50 (SNB-75 CNS): > 100 µM
TGI (SNB-75 CNS): > 100 µM
GI50 (SF-539 CNS): > 100 µM
TGI (SF-539 CNS): > 100 µM
GI50 (HCT-116 colon): > 100 µM
TGI (HCT-116 colon): > 100 µM
GI50 (SN12C renal): > 100 µM
TGI (SN12C renal): > 100 µM
GI50 (UACC-62 melanoma): > 100 µM
TGI (UACC-62 melanoma): > 100 µM
GI50 (HS 578T breast): > 100 µM
TGI (HS 578T breast): > 100 µM
GI50 (EKVX NSCLC): > 100 µM
TGI (EKVX NSCLC): > 100 µM
GI50 (OVCAR-4 ovarian): > 100 µM
TGI (OVCAR-4 ovarian): > 100 µM
GI50 (SNB-19 CNS): > 100 µM
TGI (SNB-19 CNS): > 100 µM
GI50 (IGROV1 ovarian): > 100 µM
TGI (IGROV1 ovarian): > 100 µM
GI50 (HOP-62 NSCLC): > 100 µM
TGI (HOP-62 NSCLC): > 100 µM
GI50 (RXF 393 renal): > 100 µM
TGI (RXF 393 renal): > 100 µM
GI50 (HT29 colon): > 100 µM
TGI (HT29 colon): > 100 µM
GI50 (786-0 renal): > 100 µM
TGI (786-0 renal): > 100 µM
GI50 (NCI-H23 lung): > 100 µM
TGI (NCI-H23 lung): > 100 µM
GI50 (T-47D breast): > 100 µM
TGI (T-47D breast): > 100 µM
GI50 (CCRF-CEM leukemia): > 100 µM
TGI (CCRF-CEM leukemia): > 100 µM
GI50 (DU-145 prostate): > 100 µM
TGI (DU-145 prostate): > 100 µM
GI50 (SK-OV-3 ovarian): > 100 µM
TGI (SK-OV-3 ovarian): > 100 µM
GI50 (UO-31 renal): > 100 µM
TGI (UO-31 renal): > 100 µM
GI50 (PC-3 prostate): > 100 µM
TGI (PC-3 prostate): > 100 µM
GI50 (BT-549 breast): > 100 µM
TGI (BT-549 breast): > 100 µM
GI50 (SK-MEL-2 melanoma): > 100 µM
TGI (SK-MEL-2 melanoma): > 100 µM
GI50 (A498 renal): > 100 µM
TGI (A498 renal): > 100 µM
GI50 (TK-10 renal): > 100 µM
TGI (TK-10 renal): > 100 µM
GI50 (HL-60(TB) leukemia): > 100 µM
TGI (HL-60(TB) leukemia): > 100 µM
GI50 (ACHN renal): > 100 µM
TGI (ACHN renal): > 100 µM
GI50 (MALME-3M melanoma): > 100 µM
TGI (MALME-3M melanoma): > 100 µM
GI50 (SR leukemia): > 100 µM
TGI (SR leukemia): > 100 µM
GI50 (OVCAR-8 ovarian): > 100 µM
TGI (OVCAR-8 ovarian): > 100 µM
GI50 (HCT-15 colon): > 100 µM
TGI (HCT-15 colon): > 100 µM
GI50 (K-562 leukemia): > 100 µM
TGI (K-562 leukemia): > 100 µM
GI50 (NCI-H226 lung): > 100 µM
TGI (NCI-H226 lung): > 100 µM
